By UniProt entry, the sequences of proteins in these tests, tags left out. Residues count along the entry.
UniProt P28907, 43-300 limits assumed: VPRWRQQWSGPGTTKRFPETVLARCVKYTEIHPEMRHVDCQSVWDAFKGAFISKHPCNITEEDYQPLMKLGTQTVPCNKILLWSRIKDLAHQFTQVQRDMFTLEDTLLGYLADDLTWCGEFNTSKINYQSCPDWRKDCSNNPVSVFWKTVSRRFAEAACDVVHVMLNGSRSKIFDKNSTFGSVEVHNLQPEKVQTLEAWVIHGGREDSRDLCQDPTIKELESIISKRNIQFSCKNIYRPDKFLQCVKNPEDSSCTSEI

In US20210122804A1, “PEPTIDE LIGANDS FOR BINDING TO CD38” (BicycleTx Limited, priority 2018, published 2021):

Molecular target: T1, human CD38 (human, UniProt P28907 43-300, limits assumed)
T1 construct: construct used is not described; also called hCD38
Assay: fluorescence polarisation competition; tracer m10

Ki [nM]	Binder
2530	ACDFTMPCENWKYCA (three Cys thioether-linked to TBMB scaffold, bicyclic) [66-05-07-N001]
105	ACFWLDGECFDLYGGCA (three Cys thioether-linked to TBMB scaffold, bicyclic) [66-08-55-N001]
43.3	ACFWLDGECFDWNHECA (three Cys thioether-linked to TBMB scaffold, bicyclic) [66-08-01-N001]
274	ACTPCADMPIWTCA (three Cys thioether-linked to TBMB scaffold, bicyclic) [66-03-15-N001]
1220	ACFVLDGECFDYYEECA (three Cys thioether-linked to TBMB scaffold, bicyclic) [66-08-27-N001]
1040	ACFSLDGECFDIASECA (three Cys thioether-linked to TBMB scaffold, bicyclic) [66-08-22-N001]
305	ACFSLDGECFDLSGECA (three Cys thioether-linked to TBMB scaffold, bicyclic) [66-08-02-N001]
119	ACFWLDGECFDLGGQCA (three Cys thioether-linked to TBMB scaffold, bicyclic) [66-08-53-N001]
988	ACFRLDGVCFDLDDECA (three Cys thioether-linked to TBMB scaffold, bicyclic) [66-08-29-N001]
611	ACFELDGSCFDFDHECA (three Cys thioether-linked to TBMB scaffold, bicyclic) [66-08-09-N001]
4060	ACDFTMPCQMWEQCA (three Cys thioether-linked to TBMB scaffold, bicyclic) [66-05-N002]
905	ACFTLDGECFDVNRECA (three Cys thioether-linked to TBMB scaffold, bicyclic) [66-08-13-N001]
409	ACFLLDGECFDWMQECA (three Cys thioether-linked to TBMB scaffold, bicyclic) [66-08-33-N001]
131	ACFLLDGECFDWAQECA (three Cys thioether-linked to TBMB scaffold, bicyclic) [66-08-43-N001]
106	CTPCADFPIWYC (N-terminal acetyl (Ac); three Cys thioether-linked to TBMB scaffold, bicyclic) [66-03-06-N002]
44.5	ACVPCADFPIFTCA (three Cys thioether-linked to TBMB scaffold, bicyclic) [66-03-28-N002]
139	ACIPCADFPIFTCA (three Cys thioether-linked to TBMB scaffold, bicyclic) [66-03-29-N003]
152	CVPCADFPIWGC (N-terminal acetyl (Ac); three Cys thioether-linked to TBMB scaffold, bicyclic) [66-03-04-N002]
298	CVKCADFPIWGC (N-terminal acetyl (Ac); three Cys thioether-linked to TBMB scaffold, bicyclic) [66-03-11-N002]
2970	ACFQLDGECFDTSHECA (three Cys thioether-linked to TBMB scaffold, bicyclic) [66-08-24-N001]
3950	ACDFTMPCPNWNACA (three Cys thioether-linked to TBMB scaffold, bicyclic) [66-05-09-N001]
8190	ACFHLDGECFDLAKTCA (three Cys thioether-linked to TBMB scaffold, bicyclic) [66-08-45-N001]
99	CFWLDGECFDWNHEC (N-terminal acetyl (Ac); three Cys thioether-linked to TBMB scaffold, bicyclic) [66-08-01-N004]
1040	ACFELDGECFHFGEPCA (three Cys thioether-linked to TBMB scaffold, bicyclic) [66-08-46-N001]
1360	ACFLLDGECFDLIGECA (three Cys thioether-linked to TBMB scaffold, bicyclic) [66-08-49-N001]
477	ACFELDGECFDLDNQCA (three Cys thioether-linked to TBMB scaffold, bicyclic) [66-08-54-N001]
170	ACIPCADFPISVCA (three Cys thioether-linked to TBMB scaffold, bicyclic) [66-03-24-N003]

Ki [nM]	Binder
160	ACIPCADFPISFCA (three Cys thioether-linked to TBMB scaffold, bicyclic) [66-03-26-N003]
208	ACVPCADFPISFCA (three Cys thioether-linked to TBMB scaffold, bicyclic) [66-03-25-N002]
143	ACVPCADFPISVCA (three Cys thioether-linked to TBMB scaffold, bicyclic) [66-03-27-N003]
7250	ACIFDYDCDAWSACA (three Cys thioether-linked to TBMB scaffold, bicyclic) [66-06-N002]
1160	ACFRLDDECFDWTHECA (three Cys thioether-linked to TBMB scaffold, bicyclic) [66-08-28-N001]
2160	ACFHLDGECFDYEHECA (three Cys thioether-linked to TBMB scaffold, bicyclic) [66-08-20-N001]
821	ACFTLDGACFDLDGECA (three Cys thioether-linked to TBMB scaffold, bicyclic) [66-08-31-N001]
230	ACFTLDGECFDWDAECA (three Cys thioether-linked to TBMB scaffold, bicyclic) [66-08-07-N001]
1150	ACFRLDGECFDISNECA (three Cys thioether-linked to TBMB scaffold, bicyclic) [66-08-56-N001]
3820	ACFKLDGVCFDLFHECA (three Cys thioether-linked to TBMB scaffold, bicyclic) [66-08-04-N001]
238	ACFVLDGECFEIGERCA (three Cys thioether-linked to TBMB scaffold, bicyclic) [66-08-47-N001]
245	ACFQLDGECFDIYRECA (three Cys thioether-linked to TBMB scaffold, bicyclic) [66-08-17-N001]
980	ACFELDGNCFDWTHECA (three Cys thioether-linked to TBMB scaffold, bicyclic) [66-08-18-N001]
1620	ACFELDGDCFDWTHECA (three Cys thioether-linked to TBMB scaffold, bicyclic) [66-08-34-N001]
258	ACFWLDHECFDWTHECA (three Cys thioether-linked to TBMB scaffold, bicyclic) [66-08-15-N001]
178	ACFTLDGECFDLDGWCA (three Cys thioether-linked to TBMB scaffold, bicyclic) [66-08-48-N001]
4750	ACFELDGECFSWPYPCA (three Cys thioether-linked to TBMB scaffold, bicyclic) [66-08-51-N001]
995	ACTPCADFPIHTCA (three Cys thioether-linked to TBMB scaffold, bicyclic) [66-03-02-N001]
1700	ACTPCADFPILDCA (three Cys thioether-linked to TBMB scaffold, bicyclic) [66-03-10-N001]
1370	ACFMLDGECFDLNKECA (N-terminal acetyl (Ac); three Cys thioether-linked to TBMB scaffold, bicyclic) [66-08-05-N001]
620	ACFHLDGECFDLENTCA (three Cys thioether-linked to TBMB scaffold, bicyclic) [66-08-44-N001]
154	ACFWLDGECFDFGGCA (three Cys thioether-linked to TBMB scaffold, bicyclic) [66-08-58-N001]
558	ACFHLDGVCFDWTHECA (three Cys thioether-linked to TBMB scaffold, bicyclic) [66-08-36-N001]
6950	ACFRLDGECFDMGQECA (three Cys thioether-linked to TBMB scaffold, bicyclic) [66-08-30-N001]
1100	ACFELDGECFNIGSKCA (three Cys thioether-linked to TBMB scaffold, bicyclic) [66-08-57-N001]
196	ACFELDGECFSFPGTCA (three Cys thioether-linked to TBMB scaffold, bicyclic) [66-08-50-N001]
